Experimental data published in patent US7241763B2, “3-furanyl analogs of toxoflavine as kinase inhibitors” (priority 2002, dated 2007).

Sequences of proteins named here, by UniProt entry; tags and fusion partners are left off.
UniProt Q9Y243, whole entry: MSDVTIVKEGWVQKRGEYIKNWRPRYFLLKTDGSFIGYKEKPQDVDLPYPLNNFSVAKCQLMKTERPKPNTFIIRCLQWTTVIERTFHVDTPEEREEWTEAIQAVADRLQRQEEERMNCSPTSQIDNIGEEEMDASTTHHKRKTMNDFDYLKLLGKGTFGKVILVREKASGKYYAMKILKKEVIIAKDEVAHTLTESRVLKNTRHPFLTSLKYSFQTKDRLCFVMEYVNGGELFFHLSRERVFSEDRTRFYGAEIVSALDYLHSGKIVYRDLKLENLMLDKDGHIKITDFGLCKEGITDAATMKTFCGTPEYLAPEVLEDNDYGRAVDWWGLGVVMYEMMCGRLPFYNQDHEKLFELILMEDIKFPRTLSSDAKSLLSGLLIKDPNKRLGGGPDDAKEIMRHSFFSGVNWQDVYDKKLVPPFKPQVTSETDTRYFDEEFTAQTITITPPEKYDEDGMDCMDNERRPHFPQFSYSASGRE
UniProt P30305, whole entry: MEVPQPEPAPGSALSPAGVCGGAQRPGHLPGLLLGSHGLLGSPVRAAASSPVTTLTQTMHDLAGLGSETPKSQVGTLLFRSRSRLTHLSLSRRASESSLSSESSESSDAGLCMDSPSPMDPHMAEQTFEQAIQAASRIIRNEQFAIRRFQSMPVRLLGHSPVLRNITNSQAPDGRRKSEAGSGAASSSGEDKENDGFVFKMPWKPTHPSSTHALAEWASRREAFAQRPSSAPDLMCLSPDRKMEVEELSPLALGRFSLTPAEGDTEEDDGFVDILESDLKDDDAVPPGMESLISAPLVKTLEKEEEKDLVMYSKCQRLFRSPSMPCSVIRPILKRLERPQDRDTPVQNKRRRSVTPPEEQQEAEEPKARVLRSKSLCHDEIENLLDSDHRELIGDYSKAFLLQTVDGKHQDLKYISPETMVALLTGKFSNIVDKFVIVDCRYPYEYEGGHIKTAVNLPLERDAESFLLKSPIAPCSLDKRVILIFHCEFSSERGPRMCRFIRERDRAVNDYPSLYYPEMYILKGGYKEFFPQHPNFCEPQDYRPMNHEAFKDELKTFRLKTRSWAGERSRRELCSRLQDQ
UniProt P11802, whole entry: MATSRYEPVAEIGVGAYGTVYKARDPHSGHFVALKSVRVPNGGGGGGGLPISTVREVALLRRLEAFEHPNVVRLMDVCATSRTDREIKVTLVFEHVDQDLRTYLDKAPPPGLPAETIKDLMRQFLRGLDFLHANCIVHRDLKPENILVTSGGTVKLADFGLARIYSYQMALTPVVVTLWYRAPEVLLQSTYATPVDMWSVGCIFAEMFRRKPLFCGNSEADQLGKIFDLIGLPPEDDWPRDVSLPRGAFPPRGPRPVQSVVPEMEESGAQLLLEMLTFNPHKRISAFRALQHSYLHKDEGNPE
UniProt P24385, whole entry partner: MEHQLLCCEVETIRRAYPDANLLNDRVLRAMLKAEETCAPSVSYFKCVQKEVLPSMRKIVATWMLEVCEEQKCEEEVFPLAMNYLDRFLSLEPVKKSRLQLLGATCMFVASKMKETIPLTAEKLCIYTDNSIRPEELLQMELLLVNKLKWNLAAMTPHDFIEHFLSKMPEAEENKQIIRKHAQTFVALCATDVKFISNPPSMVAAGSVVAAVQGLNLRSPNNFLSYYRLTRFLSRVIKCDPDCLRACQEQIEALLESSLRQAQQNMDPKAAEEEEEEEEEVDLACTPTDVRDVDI

Legend:
[1] = target: T1, AKT3 (Homo sapiens, UniProt Q9Y243); assay: In vitro inhibition of AKT3 using a filter assay (AKT3 pep., Ex. C3); conditions: histone H2B substrate, 25° C. 3 hrs
Experimental: In Vitro Inhibition of AKT3 using a Filter Assay
In the present AKT3 filter assay, a kinase substrate consisting of a fragment of histone H2B, is incubated with the aforementioned protein in the presence of (^33P) radiolabeled ATP. The (^33P)phosporylated substrate binds to a phosphocellulose cation exchange filter, that can easily be removed from the incubation mixture and counted using a microplate scintillation counter.
AKT3 filter assays were performed at 25° C. for 3 hrs in the presence of 25 mM Hepes, pH 7.0, containing 15 mM MgCl2, 1 mM DTT Each assay was performed in a 100 μl reaction volume containing 111 nM AKT3 (diluted in 25 mM Hepes, pH 7.0, containing 15 mM MgCl2, 1 mM DTT) and the 2.5 μM Histone H2B and 2 nM ATP-P^32. The reaction was terminated by addition of 100 μl 75 mM H3PO4, 90 μl of the assay mixture was filtered through Phosphocellulose cation exchange paper. After five times washing with […] H3PO4, the filterpaper was counting in a microtiterplate scintillation counter.

[2] = tested on: A2780 cell; assay: Cytotox/survival of A2780 cell after 3 days; conditions: A2780 ovarian carcinoma cell line
Experimental: In an alternative assay, the growth inhibitory effect of the compounds was tested on the ovarian carcinoma cell line A2780 using art known cytotoxicity assays such as LIVE/DEAD (Molecular Probes) or MTT.

[3] = target: T1, AKT3; assay: Cellular inhibition of AKT3 using an ELISA (AKT cel, Ex. C6); conditions: MDA-MB 231 cells, phosphorylated MAPK ELISA, 30 minutes with compound
Experimental: Cellular Inhibition of AKT3 using an ELISA
The human breast adenocarcinoma cell line (MDA-MB 231) was used in an phosphospecific antibody cell ELISA (PACE) to assess the inhibitory effect of the compounds on AKT3 mediated phosphorylation of mitogen-activated protein kinase (MAPK). In the experiments the MDA-MB 231 cells were serum starved for 24 hours (5% CO2; 37° C.). Subsequently, the cells are incubated at room temperature for 2 hours with 20 μM (in serum free medium) of the phosphatidylinositol 3-kinase inhibitor Ly294002 (Alexis, San Diego, Calif.) prior to the incubation for 30 minutes with the compounds at a final concentration ranging from 1 nM to 3 μM. After fixation (with 4.5% formaldehyde) for 20 minutes and washing with PBS (0.1M) the cells were successively incubated with for 5 minutes with 0.1% Triton X-100 in PBS, for 20 minutes with 0.6% H2O2 and 1 hour with a 2% BSA solution as blocking buffer. […] The OD (490–655 nm) reflected the amount of phosphorylated MAPK and the pIC50 of the compounds was based on their effect with respect to blanco (0.1% DMSO) or an internal reference compound treatment.

[4] = target: CDC25B (Homo sapiens, UniProt P30305); assay: In vitro inhibition of CDC25B using the fluorogenic substrate 3-OMFP (CDC25B WT, Ex. C5); conditions: 3-OMFP substrate, 1 hour room temperature
Experimental: In Vitro Inhibition of CDC25B using the Fluorogenic Substrate 3-OMFP
CDC25B phosphatase activity is assessed using the fluorogenic substrate 3-O-methyl-flurorescein-phosphate (3-OMFP). The phosphatase-reaction is performed for 1 hour at room temperature in a black microtiter plate in a volume of 50 μl. The reaction mixture contains 4 μg/mlCDC25B, 15 μM (3-OMFP), 15 mM Tris, 50 mM NaCl, 1 mM DTT, 1 mM Na2EDTA at pH 8.0 and 0.1% DMSO solution at 10^−5 M and the hits are tested in the same conditions in a full dose/response from 10^−5, 3.10^−6, 10^−6 and 3.10^−7 M. The enzymatic activity is determined by measuring the fluorescent signal at 485 nm (ex.) and 538 (em.).

[5] = target: cdk4 (Homo sapiens, UniProt P11802); assay: In vitro inhibition of cdk4 using a scintillant proximity assay (CDK4 SPA, Ex. C1); conditions: GST-pRb substrate, 33P-ATP, room temperature 30 minutes
Experimental: In Vitro Inhibition of cdk4 using a Scintillant Proximity Assay
The scintillant proximity assay (SPA) is in general described in U.S. Pat. No. 4,568,649 (Amersham Pharmacia Biotech). In the present cdk4 SPA kinase reaction assay, a kinase substrate consisting of a fragment of the restinoblastoma protein (pRb) tagged with […] (GST), is incubated with the aforementioned protein in the presence of (^33P) radiolabeled ATP. (^33P) phosporylation of the substrate is subsequently measured as light energy emitted using glutathione-coated SPA beads (Amersham Pharmacia Biotech) by trapping and quantifying the binding of the GST tagged and radiolabeled restinoblastoma protein.
The CDK4 SPA kinase reaction is performed at room temperature for 30 minutes in a 96-well microtiter plate. For each of the tested compounds a full dose response —10^−5M to 3.10^−9M—has been performed. Flavopiridol was used as reference compound. The 100 μl reaction volume contains 50 mM Hepes, 10 mM NaF, 10 mM MgCl2, 1 mM Na3VO4 pH 7.5, 1.5 μg CDK4-cell lysate/well, 0.2 μM unlabeled ATP, 1.7 μg/well GST-pRb, 1.7 nM AT^33P and 1 μl of a DMSO solution. […] The microtiterplates are centrifuges at 900 rpm for 10 minutes and the amount of phosphorylated (^33P) pRb is determined by counting (1 min/well) in a microtiterplate scintillation counter.

Structure (SMILES): CC(C)n1nc(-c2ccc(-c3ccc(CNC4CCN(S(=O)(=O)N(C)C)CC4)cc3)o2)nc2c(=O)n(C)c(=O)nc1-2
- AKT3 pep. (Ex. C3): pIC50 values [1]: 7.19
- Cytotox/survival of A2780 cell after 3 days - pIC50 values [2]: 7.058
- AKT cel (Ex. C6): pIC50 values [3]: 6.627
- CDC25B WT (Ex. C5): pIC50 values [4]: 7.731
- CDK4 SPA (Ex. C1): pIC50 values [5]: 7.225
